Results taken from ChEMBL document CHEMBL5223081 (J Med Chem, 2021).

Species on record: Homo sapiens
Assay: Selectivity index, ratio of antagonist activity at A1 receptor to antagonist activity at A2 receptor

## CC[C@@H]1CN2C(=O)N(C)c3nc(-c4cc(Cl)cc(Cl)c4Cl)[nH]c3C2=N1
  Ratio: > 800
